In assay [1] the test system is LTB4 production in mouse blood (LTA4 hydrolase). Briefly: Ex vivo LTB4 production by calcium ionophore stimulated mouse blood after oral dosing. The assay is classed as in vivo. As to conditions: oral gavage.
The target in assay [2] is LTB4 production in human whole blood (LTA4 hydrolase) (Homo sapiens, UniProt P09960). Briefly: LTB4 production by calcium ionophore stimulated human blood. The assay is classed as cell-based. As to conditions: read-out: Inhibition of Calcium Ionophore-Induced LTB4 Production in Human Blood IC50 HWB, A23187.

Sequences of proteins named here, by UniProt entry; tags and fusion partners are left off.
UniProt P09960, whole entry, looked up: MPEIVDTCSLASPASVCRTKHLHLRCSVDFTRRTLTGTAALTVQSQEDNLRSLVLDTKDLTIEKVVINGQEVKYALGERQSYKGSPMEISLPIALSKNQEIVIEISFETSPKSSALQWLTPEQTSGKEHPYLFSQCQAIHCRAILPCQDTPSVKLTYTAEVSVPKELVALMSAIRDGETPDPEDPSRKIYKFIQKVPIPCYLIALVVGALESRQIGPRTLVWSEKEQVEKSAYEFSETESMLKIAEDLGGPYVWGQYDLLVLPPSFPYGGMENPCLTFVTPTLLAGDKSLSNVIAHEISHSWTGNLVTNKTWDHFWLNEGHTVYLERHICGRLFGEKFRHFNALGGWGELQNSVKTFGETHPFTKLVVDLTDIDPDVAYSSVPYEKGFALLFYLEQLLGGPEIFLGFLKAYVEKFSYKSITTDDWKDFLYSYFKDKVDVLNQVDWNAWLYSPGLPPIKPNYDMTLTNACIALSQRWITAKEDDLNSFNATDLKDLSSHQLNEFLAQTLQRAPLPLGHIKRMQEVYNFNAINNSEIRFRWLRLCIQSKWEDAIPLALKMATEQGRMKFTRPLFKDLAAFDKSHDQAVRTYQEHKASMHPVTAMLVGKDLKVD

Marks after values point to notes of the source that are not given here.

In the case of `c1ccc(Cc2ccc(OCCn3cnc4ncccc43)cc2)cc1`, the “Murine Ex Vivo LTB4 Inhibition % I LTB4” value in assay [1] (1 hour after administration of 50 mg/kg (*)) stood at 92%*. In general, IC50 refers to the point on the concentration scale where inhibition reaches its midpoint. Turning to `Cn1c(=O)c2ncn(CCOc3ccc(Cc4ccccc4)cc3)c2n(C)c1=O`, the IC50 in assay [2] was found to be 260 nM. The “Murine Ex Vivo LTB4 Inhibition % I LTB4” value in assay [1] (1 hour after administration of 10 mg/kg) is given as 0%. Consider `Nc1ccc2c(c1)ncn2CCOc1ccc(Cc2ccccc2)cc1`, for which, in assay [1] (1 hour after administration of 10 mg/kg, tested form: 0.25 H2O), the “Murine Ex Vivo LTB4 Inhibition % I LTB4” value is listed as 28%.
